Laboratory results from paper PMC8625207, “Antikinetoplastid Activity of Sesquiterpenes Isolated from the Zoanthid Palythoa aff. clavata” (Pharmaceuticals, 2021).

Test system: murine macrophages J744A.1
Experiment: alamarBlue cytotoxicity on murine macrophages
Assay type: cell-based
Details: read-out: Macrophages J744A.1 CC50; 24 h of incubation

Row | Structure (SMILES) | CC50 [µM]
1 | C=C1CC[C@@H](O)[C@]2(C)CC[C@H]3C(=C)C(=O)O[C@@H]3[C@@H]12 [Reynosin (13), reynosin] | 77.9
2 | C=C1C(=O)O[C@@H]2[C@H]3C(C)=CC[C@@H](O)[C@]3(C)CC[C@@H]12 [Santamarine (12), santamarine] | 77.1
